This test concerns the target Aβ fibrils (Aβ40 peptide) (Homo sapiens, UniProt P05067). Briefly: Fluorescence titration assay with Aβ fibrils. Type of test: binding.

Chains of the proteins cited; added tags and fusions are not shown. Residues count along the entry.
UniProt P05067, 672-711 limits assumed: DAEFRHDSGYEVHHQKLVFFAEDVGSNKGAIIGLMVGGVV

Broadly, the Kd is the concentration at which binding is half-saturated. A higher Kd goes with lower affinity.

Regarding `Cc1ccc2c(c1)sc(-c1ccc(N(C)C)cc1)[n+]2C` [ThT, Thioflavin T], binding was put at a Kd of 1170 nM.
